Test results reported in patent EP4834897A1, “COMPOUNDS WITH TWO AZAHETEROCYCLES SUBSTITUTED ISOINDOLINONE SKELETON AND USES THEREOF” (dated 2026).

Amino acid sequences for entries named in this document (tags omitted).
UniProt Q13422, whole entry: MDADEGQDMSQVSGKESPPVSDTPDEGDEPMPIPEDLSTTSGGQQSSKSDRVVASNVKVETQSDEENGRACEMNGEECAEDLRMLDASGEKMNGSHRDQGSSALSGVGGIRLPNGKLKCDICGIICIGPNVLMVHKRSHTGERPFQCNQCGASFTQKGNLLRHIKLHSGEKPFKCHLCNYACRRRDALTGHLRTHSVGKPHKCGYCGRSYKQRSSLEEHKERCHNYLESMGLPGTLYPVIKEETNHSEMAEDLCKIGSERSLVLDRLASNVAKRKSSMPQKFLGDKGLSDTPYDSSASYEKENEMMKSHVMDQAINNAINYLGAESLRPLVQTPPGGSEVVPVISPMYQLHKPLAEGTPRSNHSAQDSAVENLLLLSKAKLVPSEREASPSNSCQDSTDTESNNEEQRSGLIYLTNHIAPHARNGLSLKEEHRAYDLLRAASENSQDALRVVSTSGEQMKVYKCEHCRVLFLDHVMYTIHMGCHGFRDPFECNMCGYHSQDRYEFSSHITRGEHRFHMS
UniProt Q96SW2, whole entry: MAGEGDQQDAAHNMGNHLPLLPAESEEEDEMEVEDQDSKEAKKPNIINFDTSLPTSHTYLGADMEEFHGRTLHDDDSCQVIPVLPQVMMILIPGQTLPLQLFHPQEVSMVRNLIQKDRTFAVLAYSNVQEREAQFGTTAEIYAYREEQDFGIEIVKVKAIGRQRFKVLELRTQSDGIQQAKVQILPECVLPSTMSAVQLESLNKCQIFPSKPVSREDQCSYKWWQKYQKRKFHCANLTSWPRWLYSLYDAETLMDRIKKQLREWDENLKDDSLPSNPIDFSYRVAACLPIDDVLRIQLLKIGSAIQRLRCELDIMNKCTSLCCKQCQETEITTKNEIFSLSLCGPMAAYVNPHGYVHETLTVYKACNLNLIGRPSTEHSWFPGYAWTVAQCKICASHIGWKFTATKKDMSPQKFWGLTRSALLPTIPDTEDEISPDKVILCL
UniProt P15170, whole entry: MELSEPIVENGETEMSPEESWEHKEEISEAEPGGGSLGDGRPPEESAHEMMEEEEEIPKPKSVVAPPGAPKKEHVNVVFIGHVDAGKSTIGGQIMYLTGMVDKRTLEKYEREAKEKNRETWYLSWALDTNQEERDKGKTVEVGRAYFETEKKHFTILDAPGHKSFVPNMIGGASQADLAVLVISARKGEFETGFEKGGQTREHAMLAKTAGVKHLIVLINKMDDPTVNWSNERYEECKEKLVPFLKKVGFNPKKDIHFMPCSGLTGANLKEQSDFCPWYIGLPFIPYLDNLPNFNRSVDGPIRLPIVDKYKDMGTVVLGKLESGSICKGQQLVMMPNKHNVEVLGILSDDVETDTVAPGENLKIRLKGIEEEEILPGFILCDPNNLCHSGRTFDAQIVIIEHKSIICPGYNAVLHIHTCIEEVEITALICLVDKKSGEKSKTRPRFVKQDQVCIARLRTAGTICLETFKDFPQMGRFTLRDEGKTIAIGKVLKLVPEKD
UniProt P48729, whole entry: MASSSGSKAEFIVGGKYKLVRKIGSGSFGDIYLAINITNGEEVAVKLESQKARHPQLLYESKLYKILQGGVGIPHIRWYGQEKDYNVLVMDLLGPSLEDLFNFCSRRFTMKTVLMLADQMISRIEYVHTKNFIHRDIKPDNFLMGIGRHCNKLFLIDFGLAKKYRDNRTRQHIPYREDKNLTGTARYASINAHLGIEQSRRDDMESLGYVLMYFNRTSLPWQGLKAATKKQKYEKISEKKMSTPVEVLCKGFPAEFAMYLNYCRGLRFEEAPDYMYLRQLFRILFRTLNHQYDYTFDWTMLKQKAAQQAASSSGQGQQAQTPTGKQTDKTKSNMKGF
UniProt P30291, whole entry: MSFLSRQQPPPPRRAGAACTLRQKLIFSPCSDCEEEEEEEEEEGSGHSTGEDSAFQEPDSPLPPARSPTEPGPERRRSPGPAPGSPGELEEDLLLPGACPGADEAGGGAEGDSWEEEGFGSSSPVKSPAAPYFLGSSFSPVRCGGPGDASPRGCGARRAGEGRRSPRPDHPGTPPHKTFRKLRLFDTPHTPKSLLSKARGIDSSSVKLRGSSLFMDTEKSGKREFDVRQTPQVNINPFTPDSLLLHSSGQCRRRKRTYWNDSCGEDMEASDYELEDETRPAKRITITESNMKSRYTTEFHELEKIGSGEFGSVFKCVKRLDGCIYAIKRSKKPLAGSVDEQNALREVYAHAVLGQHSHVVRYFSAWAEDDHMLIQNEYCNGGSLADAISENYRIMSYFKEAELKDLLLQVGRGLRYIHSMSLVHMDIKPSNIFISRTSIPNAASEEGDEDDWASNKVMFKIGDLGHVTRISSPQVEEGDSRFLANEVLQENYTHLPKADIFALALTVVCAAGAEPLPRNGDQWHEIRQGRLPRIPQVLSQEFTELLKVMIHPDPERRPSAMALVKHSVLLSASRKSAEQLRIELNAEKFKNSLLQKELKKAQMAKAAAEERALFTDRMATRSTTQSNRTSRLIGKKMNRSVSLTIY
UniProt Q9UKT9, whole entry: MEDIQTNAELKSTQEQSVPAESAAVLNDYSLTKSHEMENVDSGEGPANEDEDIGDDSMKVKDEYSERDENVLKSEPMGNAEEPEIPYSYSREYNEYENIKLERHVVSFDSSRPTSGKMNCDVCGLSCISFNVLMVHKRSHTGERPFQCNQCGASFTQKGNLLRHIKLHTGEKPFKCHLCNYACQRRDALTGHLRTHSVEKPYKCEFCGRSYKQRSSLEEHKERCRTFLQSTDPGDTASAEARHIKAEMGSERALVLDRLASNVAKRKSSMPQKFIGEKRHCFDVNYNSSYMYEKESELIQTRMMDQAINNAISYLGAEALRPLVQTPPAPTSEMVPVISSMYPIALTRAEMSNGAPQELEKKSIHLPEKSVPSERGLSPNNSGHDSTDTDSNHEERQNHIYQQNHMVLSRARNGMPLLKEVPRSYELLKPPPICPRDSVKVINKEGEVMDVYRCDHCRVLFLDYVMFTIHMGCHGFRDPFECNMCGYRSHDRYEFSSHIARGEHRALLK
UniProt Q9UKS7, whole entry: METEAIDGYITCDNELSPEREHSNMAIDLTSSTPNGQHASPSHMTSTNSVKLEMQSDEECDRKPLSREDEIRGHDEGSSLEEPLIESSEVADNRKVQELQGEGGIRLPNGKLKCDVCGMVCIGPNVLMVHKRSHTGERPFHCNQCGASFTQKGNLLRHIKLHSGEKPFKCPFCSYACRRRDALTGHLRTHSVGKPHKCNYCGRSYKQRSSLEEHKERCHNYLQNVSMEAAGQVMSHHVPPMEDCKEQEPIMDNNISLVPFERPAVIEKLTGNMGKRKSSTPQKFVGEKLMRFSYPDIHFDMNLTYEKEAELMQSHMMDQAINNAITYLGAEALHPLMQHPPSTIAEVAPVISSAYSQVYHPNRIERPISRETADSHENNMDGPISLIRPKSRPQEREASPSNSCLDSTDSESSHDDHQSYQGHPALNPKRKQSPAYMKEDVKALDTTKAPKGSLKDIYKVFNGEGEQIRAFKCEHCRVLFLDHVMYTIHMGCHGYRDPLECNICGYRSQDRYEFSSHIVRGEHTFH
UniProt Q16531, whole entry partner: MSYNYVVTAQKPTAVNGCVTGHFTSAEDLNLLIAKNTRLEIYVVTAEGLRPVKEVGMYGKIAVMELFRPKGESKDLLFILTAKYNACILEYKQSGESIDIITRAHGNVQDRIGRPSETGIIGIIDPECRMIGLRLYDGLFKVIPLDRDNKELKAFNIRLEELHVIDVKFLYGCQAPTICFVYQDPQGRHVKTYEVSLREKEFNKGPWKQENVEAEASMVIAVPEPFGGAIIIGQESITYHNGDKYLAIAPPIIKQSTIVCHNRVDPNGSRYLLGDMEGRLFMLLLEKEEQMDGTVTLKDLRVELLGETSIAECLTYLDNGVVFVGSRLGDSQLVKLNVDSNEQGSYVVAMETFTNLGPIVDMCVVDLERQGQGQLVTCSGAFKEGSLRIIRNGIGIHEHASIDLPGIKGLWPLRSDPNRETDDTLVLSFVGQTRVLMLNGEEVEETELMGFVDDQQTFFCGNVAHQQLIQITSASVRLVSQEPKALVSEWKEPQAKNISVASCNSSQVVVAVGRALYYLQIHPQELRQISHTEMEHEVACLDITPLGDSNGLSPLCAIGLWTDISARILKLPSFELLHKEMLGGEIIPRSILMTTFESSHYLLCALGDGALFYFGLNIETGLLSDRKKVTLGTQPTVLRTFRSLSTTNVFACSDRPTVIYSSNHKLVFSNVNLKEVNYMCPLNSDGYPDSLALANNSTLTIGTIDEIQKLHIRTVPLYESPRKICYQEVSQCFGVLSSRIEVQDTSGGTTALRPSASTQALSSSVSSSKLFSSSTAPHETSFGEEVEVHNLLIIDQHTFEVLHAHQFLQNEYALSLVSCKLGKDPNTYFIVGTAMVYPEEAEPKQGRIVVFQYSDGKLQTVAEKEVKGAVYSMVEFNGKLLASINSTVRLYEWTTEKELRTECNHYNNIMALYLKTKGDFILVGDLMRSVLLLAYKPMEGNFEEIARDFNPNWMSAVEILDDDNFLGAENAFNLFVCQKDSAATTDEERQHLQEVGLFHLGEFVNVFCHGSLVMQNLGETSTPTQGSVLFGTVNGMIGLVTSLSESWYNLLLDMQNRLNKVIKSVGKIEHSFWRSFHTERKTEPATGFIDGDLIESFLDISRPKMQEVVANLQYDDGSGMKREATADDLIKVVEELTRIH

biological target: IKZF1 (Homo sapiens, UniProt Q13422+Q96SW2); assay: Western blot assay of substrate protein degradation in hPBMCs; conditions: 24 hours treatment, compounds at 50 nM and 500 nM (concentration behind the class not stated)

| Compound | substrate protein remaining % (IKZF 1) |
| --- | --- |
| O=C1CCC(N2Cc3c(C(=O)N4CCC(N5CCN(c6cccc(Cl)c6Cl)CC5)CC4)cccc3C2=O)C(=O)N1 (stereo not drawn) | B (80%< substrate protein remaining %≤ 100%) |
| CC1(C)CCC(CN2CCN(C3CCN(Cc4cc5c(cc4F)C(=O)N(C4CCC(=O)NC4=O)C5)CC3(F)F)CC2)=C(c2ccc(Cl)cc2)C1 (stereo not drawn) | A (0% ≤ substrate protein remaining % ≤ 80%) |

biological target: GSPT1 (Homo sapiens, UniProt P15170+Q96SW2); assay: as above; conditions: 24 hours treatment, compounds at 50 nM and 500 nM (concentration behind the class not stated)

| Compound | substrate protein remaining % (GSPT1) |
| --- | --- |
| O=C1CCC(N2Cc3c(C(=O)N4CCC(N5CCN(c6cccc(Cl)c6Cl)CC5)CC4)cccc3C2=O)C(=O)N1 (stereo not drawn) | A (0% ≤ substrate protein remaining % ≤ 80%) |
| CC1(C)CCC(CN2CCN(C3CCN(Cc4cc5c(cc4F)C(=O)N(C4CCC(=O)NC4=O)C5)CC3(F)F)CC2)=C(c2ccc(Cl)cc2)C1 (stereo not drawn) | A (0% ≤ substrate protein remaining % ≤ 80%) |

biological target: CK1α (Homo sapiens, UniProt P48729+Q96SW2); assay: as above; conditions: 24 hours treatment, compounds at 50 nM and 500 nM (concentration behind the class not stated)

| Compound | substrate protein remaining % (CK1a) |
| --- | --- |
| O=C1CCC(N2Cc3c(C(=O)N4CCC(N5CCN(c6cccc(Cl)c6Cl)CC5)CC4)cccc3C2=O)C(=O)N1 (stereo not drawn) | A (0% ≤ substrate protein remaining % ≤ 80%) |
| CC1(C)CCC(CN2CCN(C3CCN(Cc4cc5c(cc4F)C(=O)N(C4CCC(=O)NC4=O)C5)CC3(F)F)CC2)=C(c2ccc(Cl)cc2)C1 (stereo not drawn) | A (0% ≤ substrate protein remaining % ≤ 80%) |

biological target: WEE1 (Homo sapiens, UniProt P30291+Q96SW2); assay: as above; conditions: 24 hours treatment, compounds at 50 nM and 500 nM (concentration behind the class not stated)

| Compound | substrate protein remaining % (WEE1) |
| --- | --- |
| O=C1CCC(N2Cc3c(C(=O)N4CCC(N5CCN(c6cccc(Cl)c6Cl)CC5)CC4)cccc3C2=O)C(=O)N1 (stereo not drawn) | B (80%< substrate protein remaining %≤ 100%) |
| CC1(C)CCC(CN2CCN(C3CCN(Cc4cc5c(cc4F)C(=O)N(C4CCC(=O)NC4=O)C5)CC3(F)F)CC2)=C(c2ccc(Cl)cc2)C1 (stereo not drawn) | A (0% ≤ substrate protein remaining % ≤ 80%) |

biological target: IKZF3 (Homo sapiens, UniProt Q96SW2+Q9UKT9); assay: as above; conditions: 24 hours treatment, compounds at 50 nM and 500 nM (concentration behind the class not stated)

| Compound | substrate protein remaining % (IKZF3) |
| --- | --- |
| O=C1CCC(N2Cc3c(C(=O)N4CCC(N5CCN(c6cccc(Cl)c6Cl)CC5)CC4)cccc3C2=O)C(=O)N1 (stereo not drawn) | A (0% ≤ substrate protein remaining % ≤ 80%) |
| CC1(C)CCC(CN2CCN(C3CCN(Cc4cc5c(cc4F)C(=O)N(C4CCC(=O)NC4=O)C5)CC3(F)F)CC2)=C(c2ccc(Cl)cc2)C1 (stereo not drawn) | B (80%< substrate protein remaining %≤ 100%) |

biological target: IKZF2 (Homo sapiens, UniProt Q96SW2+Q9UKS7); assay: as above; conditions: 24 hours treatment, compounds at 50 nM and 500 nM (concentration behind the class not stated)

| Compound | substrate protein remaining % (IKZF2) |
| --- | --- |
| O=C1CCC(N2Cc3c(C(=O)N4CCC(N5CCN(c6cccc(Cl)c6Cl)CC5)CC4)cccc3C2=O)C(=O)N1 (stereo not drawn) | A (0% ≤ substrate protein remaining % ≤ 80%) |
| CC1(C)CCC(CN2CCN(C3CCN(Cc4cc5c(cc4F)C(=O)N(C4CCC(=O)NC4=O)C5)CC3(F)F)CC2)=C(c2ccc(Cl)cc2)C1 (stereo not drawn) | B (80%< substrate protein remaining %≤ 100%) |

biological target: CRBN (Homo sapiens, UniProt Q96SW2); assay: CRBN binding affinity by HTRF (CEREBLON BINDING kit); conditions: CRBN binding, HTRF, compound at 0.5 µM

| Compound | Inhibition Rate at 0.5 µM (%) |
| --- | --- |
| O=C1CCC(N2Cc3c(C(=O)N4CCC(N5CCN(c6cccc(Cl)c6Cl)CC5)CC4)cccc3C2=O)C(=O)N1 (stereo not drawn) | a3 (30% < a3 ≤ 40%) |
| CC1(C)CCC(CN2CCN(C3CCN(Cc4cc5c(cc4F)C(=O)N(C4CCC(=O)NC4=O)C5)CC3(F)F)CC2)=C(c2ccc(Cl)cc2)C1 (stereo not drawn) | a2 (20% < a2 ≤ 30%) |

same assay, conditions: CRBN binding, HTRF, compound at 2 µM

| Compound | Inhibition Rate at 2 µM (%) |
| --- | --- |
| O=C1CCC(N2Cc3c(C(=O)N4CCC(N5CCN(c6cccc(Cl)c6Cl)CC5)CC4)cccc3C2=O)C(=O)N1 (stereo not drawn) | a6 (60% < a6 ≤ 70%) |
| CC1(C)CCC(CN2CCN(C3CCN(Cc4cc5c(cc4F)C(=O)N(C4CCC(=O)NC4=O)C5)CC3(F)F)CC2)=C(c2ccc(Cl)cc2)C1 (stereo not drawn) | a6 (60% < a6 ≤ 70%) |

tested on: Human multiple myeloma cell (MM.1S); assay: Tumor cell proliferation inhibition (cell viability assay); conditions: MM.1S cells; 10 nM; 96 hours

| Compound | Inhibition Rate at 10 nM (%) |
| --- | --- |
| O=C1CCC(N2Cc3c(C(=O)N4CCC(N5CCN(c6cccc(Cl)c6Cl)CC5)CC4)cccc3C2=O)C(=O)N1 (stereo not drawn) | 1b4 (20% ≤ 1b4 < 32%) |
| CC1(C)CCC(CN2CCN(C3CCN(Cc4cc5c(cc4F)C(=O)N(C4CCC(=O)NC4=O)C5)CC3(F)F)CC2)=C(c2ccc(Cl)cc2)C1 (stereo not drawn) | 1b7 (50% ≤ 1b7 < 60%) |

same assay, conditions: MM.1S cells; 500 nM; 96 hours

| Compound | Inhibition Rate at 500 nM (%) |
| --- | --- |
| O=C1CCC(N2Cc3c(C(=O)N4CCC(N5CCN(c6cccc(Cl)c6Cl)CC5)CC4)cccc3C2=O)C(=O)N1 (stereo not drawn) | 1b7 (50% ≤ 1b7 < 60%) |
| CC1(C)CCC(CN2CCN(C3CCN(Cc4cc5c(cc4F)C(=O)N(C4CCC(=O)NC4=O)C5)CC3(F)F)CC2)=C(c2ccc(Cl)cc2)C1 (stereo not drawn) | 1b10 (80% ≤ 1b10 ≤ 100%) |

tested on: Human acute T lymphocytic leukemia cell (Molt4); assay: as above; conditions: Molt4 cells; 10 nM; 96 hours

| Compound | Inhibition Rate at 10 nM (%) |
| --- | --- |
| CC1(C)CCC(CN2CCN(C3CCN(Cc4cc5c(cc4F)C(=O)N(C4CCC(=O)NC4=O)C5)CC3(F)F)CC2)=C(c2ccc(Cl)cc2)C1 (stereo not drawn) | 1c9 (60% ≤ 1c9 < 70%) |

same assay, conditions: Molt4 cells; 500 nM; 96 hours

| Compound | Inhibition Rate at 500 nM (%) |
| --- | --- |
| CC1(C)CCC(CN2CCN(C3CCN(Cc4cc5c(cc4F)C(=O)N(C4CCC(=O)NC4=O)C5)CC3(F)F)CC2)=C(c2ccc(Cl)cc2)C1 (stereo not drawn) | 1c10 (70% ≤ 1c10 < 80%) |

tested on: Human mantle cell lymphoma cell line (JEKO-1); assay: as above; conditions: JEKO-1 cells; 10 nM; 96 hours

| Compound | Inhibition Rate at 10 nM (%) |
| --- | --- |
| CC1(C)CCC(CN2CCN(C3CCN(Cc4cc5c(cc4F)C(=O)N(C4CCC(=O)NC4=O)C5)CC3(F)F)CC2)=C(c2ccc(Cl)cc2)C1 (stereo not drawn) | 1g4 (20% ≤ 1g4 < 30%) |

same assay, conditions: JEKO-1 cells; 500 nM; 96 hours

| Compound | Inhibition Rate at 500 nM (%) |
| --- | --- |
| CC1(C)CCC(CN2CCN(C3CCN(Cc4cc5c(cc4F)C(=O)N(C4CCC(=O)NC4=O)C5)CC3(F)F)CC2)=C(c2ccc(Cl)cc2)C1 (stereo not drawn) | 1g6 (40% ≤ 1g6 < 50%) |

tested on: Human diffuse large B-cell lymphoma cell (TMD8); assay: as above; conditions: TMD8 cells; 10 nM; 96 hours

| Compound | Inhibition Rate at 10 nM (%) |
| --- | --- |
| O=C1CCC(N2Cc3c(C(=O)N4CCC(N5CCN(c6cccc(Cl)c6Cl)CC5)CC4)cccc3C2=O)C(=O)N1 (stereo not drawn) | 1f7 (50% ≤ 1f7 < 60%) |

same assay, conditions: TMD8 cells; 500 nM; 96 hours

| Compound | Inhibition Rate at 500 nM (%) |
| --- | --- |
| O=C1CCC(N2Cc3c(C(=O)N4CCC(N5CCN(c6cccc(Cl)c6Cl)CC5)CC4)cccc3C2=O)C(=O)N1 (stereo not drawn) | 1f7 (50% ≤ 1f7 < 60%) |

tested on: Human colon cancer cell (SW620); assay: as above; conditions: SW620 cells; 10 nM; 96 hours

| Compound | Inhibition Rate at 10 nM (%) |
| --- | --- |
| CC1(C)CCC(CN2CCN(C3CCN(Cc4cc5c(cc4F)C(=O)N(C4CCC(=O)NC4=O)C5)CC3(F)F)CC2)=C(c2ccc(Cl)cc2)C1 (stereo not drawn) | 1d7 (50% ≤ 1d7 < 60%) |

same assay, conditions: SW620 cells; 500 nM; 96 hours

| Compound | Inhibition Rate at 500 nM (%) |
| --- | --- |
| CC1(C)CCC(CN2CCN(C3CCN(Cc4cc5c(cc4F)C(=O)N(C4CCC(=O)NC4=O)C5)CC3(F)F)CC2)=C(c2ccc(Cl)cc2)C1 (stereo not drawn) | 1d9 (70% ≤ 1d9 < 80%) |

tested on: Human breast cancer cell (MCF-7); assay: as above; conditions: MCF-7 cells; 10 nM; 96 hours

| Compound | Inhibition Rate at 10 nM (%) |
| --- | --- |
| O=C1CCC(N2Cc3c(C(=O)N4CCC(N5CCN(c6cccc(Cl)c6Cl)CC5)CC4)cccc3C2=O)C(=O)N1 (stereo not drawn) | 1e5 (20% ≤ 1e5 < 30%) |
| CC1(C)CCC(CN2CCN(C3CCN(Cc4cc5c(cc4F)C(=O)N(C4CCC(=O)NC4=O)C5)CC3(F)F)CC2)=C(c2ccc(Cl)cc2)C1 (stereo not drawn) | 1e5 (20% ≤ 1e5 < 30%) |

same assay, conditions: MCF-7 cells; 500 nM; 96 hours

| Compound | Inhibition Rate at 500 nM (%) |
| --- | --- |
| O=C1CCC(N2Cc3c(C(=O)N4CCC(N5CCN(c6cccc(Cl)c6Cl)CC5)CC4)cccc3C2=O)C(=O)N1 (stereo not drawn) | 1e7 (40% ≤ 1e7 < 50%) |
| CC1(C)CCC(CN2CCN(C3CCN(Cc4cc5c(cc4F)C(=O)N(C4CCC(=O)NC4=O)C5)CC3(F)F)CC2)=C(c2ccc(Cl)cc2)C1 (stereo not drawn) | 1e8 (50% ≤ 1e8 < 60%) |

tested on: Human myeloid monocytic leukemia cell (MV-4-11); assay: as above; conditions: MV-4-11 cells; 10 nM; 96 hours

| Compound | Inhibition Rate at 10 nM (%) |
| --- | --- |
| O=C1CCC(N2Cc3c(C(=O)N4CCC(N5CCN(c6cccc(Cl)c6Cl)CC5)CC4)cccc3C2=O)C(=O)N1 (stereo not drawn) | 1a5 (30% ≤ 1a5 ≤ 40%) |
| CC1(C)CCC(CN2CCN(C3CCN(Cc4cc5c(cc4F)C(=O)N(C4CCC(=O)NC4=O)C5)CC3(F)F)CC2)=C(c2ccc(Cl)cc2)C1 (stereo not drawn) | 1a9 (70% ≤ 1a9 < 80%) |

same assay, conditions: MV-4-11 cells; 500 nM; 96 hours

| Compound | Inhibition Rate at 500 nM (%) |
| --- | --- |
| O=C1CCC(N2Cc3c(C(=O)N4CCC(N5CCN(c6cccc(Cl)c6Cl)CC5)CC4)cccc3C2=O)C(=O)N1 (stereo not drawn) | 1a8 (60% ≤ 1a8 < 70%) |
| CC1(C)CCC(CN2CCN(C3CCN(Cc4cc5c(cc4F)C(=O)N(C4CCC(=O)NC4=O)C5)CC3(F)F)CC2)=C(c2ccc(Cl)cc2)C1 (stereo not drawn) | 1a10 (80% ≤ 1a10 < 100%) |
